Experiments:
Homo sapiens = organism: Homo sapiens; test: Half life in human liver microsomes using compound depletion approach
[1] = Efflux ratio of permeability from basolateral to apical side over apical to basolateral side in human Caco2 cells; format: ADME, cell-based; conditions: Caco-2
[2] = Half life in rat liver microsomes using compound depletion approach; format: ADME

Row | Compound | half-life (Homo sapiens) | efflux ratio [1] | half-life [2]
1 | COCCCOc1cc(C(=O)N(C[C@@H]2CNC[C@H]2NCc2ccc3ccccc3c2)C(C)C)ccc1OC | 11.3 min | 110 | –
2 | COCCCOc1cc(C(=O)N(C[C@@H]2CNC[C@H]2NC(=O)CC2CCOCC2)C(C)C)ccc1OC | > 65 min | – | > 65 min
3 | COCCCOc1cc(C(=O)N(C[C@@H]2CNC[C@H]2NC(=O)OCC2CCCCC2)C(C)C)ccc1OC | 11.3 min | 8 | –
4 | COCCCOc1cc(C(=O)N(C[C@@H]2CNC[C@H]2NS(=O)(=O)CC2CCOCC2)C(C)C)ccc1OC | > 65 min | – | > 65 min
5 | COCCCOc1cc(C(=O)N(C[C@@H]2CNC[C@H]2NS(=O)(=O)Cc2ccccc2)C(C)C)ccc1OC | 17.4 min | 62 | –
6 | COCCCOc1cc(C(=O)N(C[C@@H]2CNC[C@H]2NC(=O)CCc2ccccc2)C(C)C)ccc1OC (racemic) | 22.3 min | 1.4 | –

— ChEMBL document CHEMBL3400139, “trans-(3S,4S)-Disubstituted pyrrolidines as inhibitors of the human aspartyl protease renin. Part I: prime site exploration using an amino linker” (Bioorg Med Chem Lett, 2015)
